In patent publication US20170095435A1, “AGENT FOR THE TREATMENT AND PREVENTION OF AUTISM SPECTRUM DISORDERS” (published 2017):

What was measured:
Balb/C mice [1] = test: learning and replicating the spatial skill in the Morris water maze
Balb/C mice [2] = test: learning and replicating the spatial skill after spatial reversal (relearning) in the Morris water maze
Balb/C mice [3] = test: olfactory habituation/dishabituation test; conditions: for Response to the olfactory stimulus of Balb/C mice: 10-mg/kg i.p. once; for Response to Olfactory Stimuli of Balb/C mice: Table 5, Glycine mg/kg (dose not given)
[4] = after spatial reversal, 10-mg/kg, over 6 days

## NCC(=O)O
Balb/C mice [1]; 10-mg/kg, over 6 days
  Replication: Time in the platform quadrant: 15.0 ± 5.2 s
  Training: Number of effective attempts, 1 day: 0.8 ± 0.3 units
  Training: Number of effective attempts, 2 day: 1.7 ± 0.6 units
  Training: Time of searching for the platform, 1 day: 54.5 ± 1.8 s
  Training: Time of searching for the platform, 2 day: 51.3 ± 3.2 s
Balb/C mice [1]; nanolycine 1- and 10-mg/kg, nanodiamond, glycine, Triftazin
  difference from the linear (control Balb/C) mice on the first day of training: didn't show any statistically significant difference
Balb/C mice [2]; Triftazin 0.5 mg/kg, glycine 10-mg/kg, nanolycine 10-mg/kg
  impact on the replication of the newly acquired skill: did not make any impact
Balb/C mice [2]; [4]
  Replication: Time in the platform quadrant: 8.2 ± 2.9 s
  Training: Number of effective attempts, 1 day: 1.0 ± 0.3 units
  Training: Number of effective attempts, 2 day: 1.0 ± 0.4 units
  Training: Time of searching for the platform, 1 day: 51.9 ± 2.6 s
  Training: Time of searching for the platform, 2 day: 56.5 ± 1.5 s
Balb/C mice [2]; nanolycine 1-mg/kg, nanodiamond, glycine, Triftazin
  difference from the control group in both recorded parameters on the first and second day of retraining: did not show any statistically significant difference
Balb/C mice [3]; 10-mg/kg, single administration
  effectiveness in the olfactory experiment: not very effective
Balb/C mice [3]; C57B1/6 mice odor, exposure 1
  Response to the olfactory stimulus of Balb/C mice: 10.8 ± 0.9 units
Balb/C mice [3]; C57B1/6 mice odor, exposure 2
  Response to the olfactory stimulus of Balb/C mice: 5.0 ± 0.7 units
Balb/C mice [3]; C57B1/6 mice odor, exposure 3
  Response to the olfactory stimulus of Balb/C mice: 2.2 ± 0.5 units
Balb/C mice [3]; Lemon, exposure 1
  Response to the olfactory stimulus of Balb/C mice: 5.8 ± 0.5 units
  Response to Olfactory Stimuli of Balb/C mice: 5.9 ± 0.6 units
Balb/C mice [3]; Lemon, exposure 2
  Response to the olfactory stimulus of Balb/C mice: 2.6 ± 0.6 units
  Response to Olfactory Stimuli of Balb/C mice: 2.5 ± 0.5 units
Balb/C mice [3]; Lemon, exposure 3
  Response to the olfactory stimulus of Balb/C mice: 1.0 ± 0.3 units
  Response to Olfactory Stimuli of Balb/C mice: 1.0 ± 0.3 units
Balb/C mice [3]; Odor of C57B1/6 mice, exposure 1
  Response to Olfactory Stimuli of Balb/C mice: 10.6 ± 0.9 units
Balb/C mice [3]; Odor of C57B1/6 mice, exposure 2
  Response to Olfactory Stimuli of Balb/C mice: 5.2 ± 0.8 units
Balb/C mice [3]; Odor of C57B1/6 mice, exposure 3
  Response to Olfactory Stimuli of Balb/C mice: 2.1 ± 0.5 units
Balb/C mice [3]; Water, exposure 1
  Response to Olfactory Stimuli of Balb/C mice: 10.1 ± 0.8 units
  Response to the olfactory stimulus of Balb/C mice: 10.2 ± 0.9 units
Balb/C mice [3]; Water, exposure 2
  Response to Olfactory Stimuli of Balb/C mice: 6.1 ± 0.8 units
  Response to the olfactory stimulus of Balb/C mice: 6.2 ± 0.9 units
Balb/C mice [3]; Water, exposure 3
  Response to Olfactory Stimuli of Balb/C mice: 4.0 ± 0.9 units
  Response to the olfactory stimulus of Balb/C mice: 4.0 ± 1.0 units
Balb/C mice [3]; nanolycine 1- and 10-mg/kg, nanodiamond, glycine 10-mg/kg, Triftazin 0.5 mg/kg
  habituation to olfactory stimuli as compared to the control Balb/C animals: faster
